Laboratory results from ChEMBL document CHEMBL1772975, “Novel potent and selective σ ligands: evaluation of their agonist and antagonist properties” (J Med Chem, 2011).

Test system: Rattus norvegicus
Assay: Antinociceptive activity in Sprague-Dawley rat assessed as mean AUC of thermal-stimulus induced tail flick latency for 60 mins at 5 mg/kg, sc
Conditions: route subcutaneous, strain Sprague-Dawley

Compound: CN(C(=O)Cc1ccc(Cl)c(Cl)c1)[C@H]1CCCC[C@@H]1N1CCCC1
- Activity: 75.6%
